Values of other authors in patent US7235142B2, “Non-toxic corrosion-protection rinses and seals based on cobalt” (University of Dayton, priority 2002, dated 2007).

Conditions: pH 7

Substance	Solubility in Water
Cobalt (II) iodide	10.8 mol/L
Hexaammine cobalt (III) nitrate	0.049 mol/L
Pr4N^+ nitrate	~1 × 10^0^ mole/L
Bu4N^+ nitrate	~0.5 mol/L
Et4N^+ nitrate	~5 × 10^0^ mole/L
Ammonium periodate	0.13 mol/L
Cobalt (II) bromide	3.05 × 10^0 mole/L
Hafnium hydroxide	0.00137 mol/L
